Experimental findings from patent publication US20040259250A1 (published 2004) are described below.

The assay addresses epidermal growth factor receptor (EGFR). In words: cell-based or functional assay.

B1: DEDSH2 adaptor molecule comprising the death effector domain of FADD and the SH2 domain of Grb2 (other, not shown: small tags and cut ends)
chain: MDPFLVLLHSLSGSLSGNDLMELKFLCRERVSKRKLERVQSGLDLFTVLLEQNDLERGHTGLLRELLASLRRHDLLQRLDDFENSWFFGKIPRAKAEEMLSKQRHDGAFLIRESESAPGDFSLSVKFGNDVQHFKVLRDGAGKYFLWVVKFNSLNELVDYHRSTSASRNQQIFLRDIEQ
Turning to B1, the “caspase 8 activity” value was 6 fold.
